According to patent US8906897B2, “Antimicrobial agents based on hemin derivatives” (Obschestvo S Ogranichennoi Otvetstvennostiyu …, priority 2009, dated 2014):

Tested on: erythrocytes
Experiment: Hemolytic activity (hemoglobin release from erythrocytes)
Format: cell-based
Conditions: human erythrocytes, 3 h
Experimental: Fresh human capillary blood was used in hemolytic activity studies. The hemolysis efficacy was determined as the hemoglobin release from erythrocytes in the RPMI-1640 medium (without Phenol Red and with addition of 10% fetal bovine serum and 20 mM L-glutamine) for an initial erythrocyte density of (1.0±0.1)×10^7 cells/mL after 3-h incubation with an agent (37° C., 5% CO2, 100% humidity, stirring on an orbital shaker).
The hemolytic activity was characterized by the hemoglobin fraction released from erythrocytes to the external medium. Erythrocytes, erythrocyte ghosts, and intermediate species containing unreleased hemoglobin were separated by centrifugation. Hemoglobin was quantified by the absorption of the supernatant at a wavelength of 414 nm (near the Soret band maximum for the heme).
Inasmuch as all tested compounds except for GrD absorb light at this wavelength, a correction for the absorption of each compound with account for its concentration was applied in calculating the hemoglobin release fraction. The percent hemoglobin release (HR) was calculated from the optical density (A) measured at a wavelength of 414 nm using the equation HR=[(Aei−Ae0)−(Ami−Am0)]×100/(Aet−Ae0), (2) […]
All samples (except for the positive control) were incubated for 3 h at 37° C., 5% CO2, 100% humidity, and under stirring at 150 rpm. […] The hemoglobin release was calculated from relationship (2).

Q: “Protohemin IX 6(7)-Mono(-Val-Gly-Ala-D-Leu-Ala-D-Val-Val-D-Val-Trp-D-Leu-X-D-Leu-Trp-D-Leu-Trp-NH—CH2CH2OH)amide [Compound XII]” was tested. Which “concentration until which hemolytic activity is not manifested” value did it give?
A: 100 µM
